A word on the IC50: it is the point on the concentration scale where inhibition reaches its midpoint. A higher IC50 goes with weaker potency.

Experimental findings from paper PMC9865020, “Identification of Novel Small Molecule Ligands for JAK2 Pseudokinase Domain” (Pharmaceuticals, 2023) are described below.

SMILES strings stand for the structures.

The test concerns the target T1, JAK3 JH2 (Homo sapiens, UniProt P52333).
T1 sequence (P52333 511-790): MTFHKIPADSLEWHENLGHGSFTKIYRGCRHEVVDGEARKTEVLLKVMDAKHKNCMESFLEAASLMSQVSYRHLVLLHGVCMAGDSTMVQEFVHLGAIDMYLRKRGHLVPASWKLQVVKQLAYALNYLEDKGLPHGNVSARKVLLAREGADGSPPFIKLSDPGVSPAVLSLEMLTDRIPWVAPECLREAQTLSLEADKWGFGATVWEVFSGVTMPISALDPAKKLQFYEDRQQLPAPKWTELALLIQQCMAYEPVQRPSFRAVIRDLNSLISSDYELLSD
Briefly: More sensitive FP binding assay, Bodipy FL-labeled JNJ-7706621 tracer.

The compound `c1nc2nc(Nc3ccc(N4CCOCC4)cc3)nc(NC3CCCCC3)c2[nH]1` [Compound 7, Reversine, reference compound] showed an IC50 of 4.7 µM.
